Measurements published in US20260364175A1, “COMPOSITIONS FOR DRUG ADMINISTRATION” (Aegis Therapeutics, LLC, priority 2018, published 2026).
Counter-ions that a name gives are not always drawn.

Assay: Octreotide pharmacokinetics after s.c. and oral delivery
Settings: oral […] DDM, second peak; 1 mg/kg
Protocol: C prior to administration. […] Death is confirmed by cervical dislocation. […] Euthanasia is confirmed by cervical dislocation.
Pharmacokinetic analyses is carried out as follows.
Serum half-life (t1/2) is determined as follows.

C[C@@H](O)[C@@H]1NC(=O)[C@H](CCCCN)NC(=O)[C@@H](Cc2c[nH]c3ccccc23)NC(=O)[C@H](Cc2ccccc2)NC(=O)[C@@H](NC(=O)[C@H](N)Cc2ccccc2)CSSC[C@@H](C(=O)N[C@H](CO)[C@@H](C)O)NC1=O (relative stereo) [Octreotide, L-Cysteinamide, D-phenylalanyl-L-cysteinyl-L-phenylalanyl-D-tryptophyl-L-lysyl-L-threonyl-N-[2-hydroxy-1-(hydroxymethyl)propyl]-, cyclic (2→7)-disulfide; [R—(R*, R*)]acetate salt]
t1/2 2: 24.84 min
